According to patent US10085990B2, “Tricyclic compounds as modulators of TNF-α synthesis and as PDE4 inhibitors” (vTv Therapeutics LLC, priority 2008, dated 2018):

Test system: TNF synthesis in human PBMC
Experiment: Human PBMC TNF Synthesis Assay
Format: cell-based
Conditions: LPS-stimulated human PBMC, overnight incubation, TNF ELISA; read-out: TNF inhib.
Method: Human PBMC TNF Synthesis Assay
Human PBMC were obtained by from a healthy human donor leuko pak. Typically, all donors were pre-screened for STD, HIV and have been given a physical by a physician. One to two ampoules were thawed at 37° C. and then resuspended in 45 to 85 mL of RPMI+10% FBS to a final concentration of 2.5×10^6 cells/mL. Resuspended cells were filtered to remove any large clumps.
Prepare compounds for addition to cells: All compounds were DMSO stocks at 20 mM. Working stock for cell testing were prepared as 4× concentrated material in RPMI+10% FBS. Compounds were added to a polypropylene block and then diluted with the appropriate amount of RPMI+10% FBS. Typically 2.6 μL of 20 mM stock was diluted to 650 μL final volume to yield an 80 μM starting concentration in the stocks. RPMI was added to DMSO stock by pipetting into the tube or block. The compounds were then serial diluted with RPMI+10% FBS. The final DMSO concentrations were not greater than 0.5% in the assay.
Compounds were added to the cells as 4× working stock. 50 μL of compound was prepared above is added to the cells and re-equilibrated in a humidified 5% CO2 incubator at 37° C. for 30 minutes.
A stock of LPS was prepared using RPMI+10% FBS. To prepare the stock, 2.8 μL of LPS (5 mg/mL; Sigma Cat #L3024) was added to 35 mL of media. 50 μL of the LPS in media was added to the cells. […]

Row | Structure (SMILES) | IC50 [nM]
1 | COc1cccc2c1ncc1c(=O)n(-c3cccc(Cl)c3)c(=O)n([C@H]3CCN(S(C)(=O)=O)C3)c12 [Example 118, 3-(3-Chloro-phenyl)-1-((S)-1-methanesulfonyl-pyrrolidin-3-yl)-7-methoxy-1H-pyrimido[5,4-c]quinoline-2,4-dione] | 29
2 | COc1cccc2c1ncc1c(=O)n(-c3cccc(Cl)c3)c(=O)n([C@@H]3CCN(S(C)(=O)=O)C3)c12 [Example 115, 3-(3-Chloro-phenyl)-1-((R)-1-methanesulfonyl-pyrrolidin-3-yl)-7-methoxy-1H-pyrimido[5,4-c]quinoline-2,4-dione] | 29
